Source: ChEMBL document CHEMBL4477167, “Limonoids and Triterpenoids as 11β-HSD1 Inhibitors from Walsura robusta” (J Nat Prod, 2016)

The chains behind the UniProt entries cited, without tags or fusion partners. Where a name states a change or a piece, a line headed by the entry shows the natural chain unless it says otherwise.
UniProt P50172: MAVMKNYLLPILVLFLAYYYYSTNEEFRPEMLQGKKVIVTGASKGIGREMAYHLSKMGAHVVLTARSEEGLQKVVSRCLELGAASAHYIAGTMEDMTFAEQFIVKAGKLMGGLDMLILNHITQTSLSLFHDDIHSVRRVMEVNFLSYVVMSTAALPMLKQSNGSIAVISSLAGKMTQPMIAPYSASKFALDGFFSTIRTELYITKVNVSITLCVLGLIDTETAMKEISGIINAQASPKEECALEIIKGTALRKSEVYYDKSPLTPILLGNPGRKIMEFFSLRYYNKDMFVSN

Biological target: 11-beta-hydroxysteroid dehydrogenase 1 (Mus musculus) (UniProt P50172)
Experiment: Inhibition of mouse microsomal 11beta-HSD1 overexpressed in HEK293 cells using [3H]-cortisone as substrate assessed as formation of [3H]-cortisol at 10 uM using [3H]cortisone by scintillation proximity assay in presence of NADPH
Method in brief: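 Human or mouse 11β-HSD1 inhibition measured in vitro by scintillation proximity assay (SPA). Every isolate was first screened at a single concentration of 10 μM. IC50 values were then determined for isolates giving more than 50% inhibition at that concentration. Glycyrrhetinic acid served as the positive control. Other assay conditions follow an earlier report.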

With CC(=O)O[C@H]1C[C@@]2(C)[C@H](c3ccoc3)C[C@H]3O[C@]32[C@]2(C)C(=O)C(O)=C3C(C)(C)C(=O)C=C[C@]3(C)[C@@H]12 the inhibition was < 50%.
